Target: Prostaglandin G/H synthase 1 (Homo sapiens, UniProt P23219)
Test: Inhibition of COX1 assessed as TBX2 production in human whole blood
Type: functional, tissue-based

The chains behind the UniProt entries cited, without tags or fusion partners.
UniProt P23219, whole entry: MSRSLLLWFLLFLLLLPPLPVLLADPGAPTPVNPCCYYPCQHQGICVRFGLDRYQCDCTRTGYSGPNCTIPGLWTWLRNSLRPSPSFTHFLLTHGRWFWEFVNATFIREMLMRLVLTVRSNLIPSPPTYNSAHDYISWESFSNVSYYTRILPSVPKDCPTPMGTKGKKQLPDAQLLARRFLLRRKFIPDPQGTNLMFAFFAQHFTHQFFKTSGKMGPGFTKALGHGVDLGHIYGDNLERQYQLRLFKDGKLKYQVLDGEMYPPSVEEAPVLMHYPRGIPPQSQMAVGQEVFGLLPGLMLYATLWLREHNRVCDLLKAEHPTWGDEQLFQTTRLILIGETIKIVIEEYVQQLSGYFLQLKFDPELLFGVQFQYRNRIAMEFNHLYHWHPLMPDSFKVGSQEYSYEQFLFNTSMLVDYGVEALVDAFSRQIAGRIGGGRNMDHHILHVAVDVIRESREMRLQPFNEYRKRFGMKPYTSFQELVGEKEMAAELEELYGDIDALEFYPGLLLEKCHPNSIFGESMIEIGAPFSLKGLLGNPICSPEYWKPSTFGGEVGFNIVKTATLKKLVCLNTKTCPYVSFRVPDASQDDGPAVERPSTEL

**Q.** Which IC50 does the source give for `Oc1ccc(/C=C/c2cc(O)cc(O)c2)cc1` [RESVERATROL] here?
**A.** 2840 nM
